AlphaSeq binding of Ab-14 heavy chain variants to a spike HR2 peptide

Antigen: PDVDLGDISGINAS, a 14-residue peptide of the SARS-CoV-2 spike HR2 region.

Ab-14 is the parent antibody, in scFv form: VH, then a (GGGGS)3 linker, then VL. The light chain is unchanged in all variants.
VH: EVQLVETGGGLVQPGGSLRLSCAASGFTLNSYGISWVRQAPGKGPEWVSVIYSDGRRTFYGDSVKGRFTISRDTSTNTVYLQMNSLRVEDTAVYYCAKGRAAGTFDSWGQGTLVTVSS
VL: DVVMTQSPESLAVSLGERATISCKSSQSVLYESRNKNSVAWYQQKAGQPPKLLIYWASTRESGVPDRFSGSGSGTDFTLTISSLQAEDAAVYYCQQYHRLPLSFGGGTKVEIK

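The parent was found by panning a naive human phage display library on the peptide. AAYL49 was designed without a model: most single CDR substitutions and a random sample of double and triple ones. AlphaSeq pools MATa yeast showing the antibodies with MATalpha yeast showing the peptide. Binding brings cells together so that they mate, and sequencing counts the barcode pairs among the diploids. Read counts were normalised to the haploid input and turned into Kd by a linear fit to BCL2-family pairs of known affinity, for each replicate. There are three technical replicates.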

The parent's heavy chain CDRs are GFTLNSYGIS, VIYSDGRRTFYGDSVK, GRAAGTFDS; each variant's own CDRs replace them letter for letter. Numbers give log10(Kd / nM), so 0 is 1 nM and 3 is 1 µM. Smaller is tighter. Averages over replicates are reported, and they cover detected replicates only. Where no diploid with the target was found in that replicate, the entry reads "ND": below detection, most likely a poor binder, though not proof of it. Empty control strains, which show no peptide, gave a signal in 15% of pairings with library AAYL49; the median was 4.06 and 95% of these signals were weaker than 2.83. No background was subtracted. For each scFv, signals with the empty controls are counted beside the result, with their mean in brackets.

{"CDR-H1": "RFTLNSYGIS", "CDR-H2": "VIYYDGRRTFYGDSMK", "CDR-H3": "GRAAGTFDS", "replicates, log10 nM": "ND / ND / ND", "mean, log10 nM": "ND", "signal with controls": "0 of 9"}
{"CDR-H1": "GFTHNSYGIF", "CDR-H2": "VIYSDGRRNFYGDSVK", "CDR-H3": "GRAAGTFDS", "replicates, log10 nM": "ND / 5.25 / ND", "mean, log10 nM": "5.25", "signal with controls": "3 of 9 (3.83)"}
{"CDR-H1": "GFTPNSKGIS", "CDR-H2": "VIYSDGRRTFYGDWVK", "CDR-H3": "GRAAGTFDS", "replicates, log10 nM": "3.97 / ND / ND", "mean, log10 nM": "3.97", "signal with controls": "2 of 9 (3.80)"}
{"CDR-H1": "GQTLNSSGIS", "CDR-H2": "VIYSDGRRTFNGDSVK", "CDR-H3": "GRAAGTFDS", "replicates, log10 nM": "ND / ND / ND", "mean, log10 nM": "ND", "signal with controls": "0 of 9"}
{"CDR-H1": "GFTLNSYKIS", "CDR-H2": "VIYSDGRRTFYCDSVK", "CDR-H3": "GPAAGTFDS", "replicates, log10 nM": "ND / 5.19 / ND", "mean, log10 nM": "5.19", "signal with controls": "3 of 9 (4.03)"}
{"CDR-H1": "GETLPSYGIS", "CDR-H2": "VIYYDGRRTFYGDSVK", "CDR-H3": "GRAAGTFDS", "replicates, log10 nM": "3.09 / 2.60 / 2.69", "mean, log10 nM": "2.80", "signal with controls": "1 of 9 (3.89)"}
{"CDR-H1": "GFTLNSYGIS", "CDR-H2": "VIYSDGRRTFYGDKVK", "CDR-H3": "GRAWGTFDS", "replicates, log10 nM": "5.85 / ND / ND", "mean, log10 nM": "5.85", "signal with controls": "4 of 9 (4.41)"}
{"CDR-H1": "GFWLISYGIS", "CDR-H2": "VIYSQGRRTFYGDSVK", "CDR-H3": "GRAAGTFDS", "replicates, log10 nM": "ND / ND / ND", "mean, log10 nM": "ND", "signal with controls": "0 of 9"}
{"CDR-H1": "DFTLNSYGIS", "CDR-H2": "VSYSDGRRTFYGDSVK", "CDR-H3": "GRAAGTHDS", "replicates, log10 nM": "ND / 3.23 / ND", "mean, log10 nM": "3.23", "signal with controls": "0 of 9"}
{"CDR-H1": "GFTLNRYGIS", "CDR-H2": "VIYSDGRRTFYGDSVK", "CDR-H3": "GRATGTFDK", "replicates, log10 nM": "1.89 / 1.53 / 1.77", "mean, log10 nM": "1.73", "signal with controls": "0 of 9"}
{"CDR-H1": "GFTLRSYGIS", "CDR-H2": "VIYSDGENTFYGDSVK", "CDR-H3": "GRAAGTFDS", "replicates, log10 nM": "ND / ND / ND", "mean, log10 nM": "ND", "signal with controls": "1 of 9 (4.54)"}
{"CDR-H1": "GFTPNSYGIS", "CDR-H2": "IIYSDGRRTFYGDSVK", "CDR-H3": "GFAAGTFDS", "replicates, log10 nM": "ND / ND / ND", "mean, log10 nM": "ND", "signal with controls": "0 of 9"}
{"CDR-H1": "GFTLNSYGIS", "CDR-H2": "VNYSDGRRTMYGDSVK", "CDR-H3": "GRAAGTFHS", "replicates, log10 nM": "ND / ND / ND", "mean, log10 nM": "ND", "signal with controls": "0 of 9"}
{"CDR-H1": "GFTLNSQGIS", "CDR-H2": "VIYSLGRRTFYGDSVK", "CDR-H3": "GRAAGTFWS", "replicates, log10 nM": "ND / ND / ND", "mean, log10 nM": "ND", "signal with controls": "6 of 9 (4.19)"}
{"CDR-H1": "NFTLNSYGIS", "CDR-H2": "VIYSDGRRNFYGDSVF", "CDR-H3": "GRAAGTFDS", "replicates, log10 nM": "ND / ND / 5.25", "mean, log10 nM": "5.25", "signal with controls": "6 of 9 (4.62)"}
{"CDR-H1": "GFTLNSYGIS", "CDR-H2": "VIYADGRRTFYGDKVK", "CDR-H3": "GRAAGTFDS", "replicates, log10 nM": "1.17 / 1.31 / 1.35", "mean, log10 nM": "1.27", "signal with controls": "4 of 9 (4.11)"}
{"CDR-H1": "GFTLDSYGIS", "CDR-H2": "VIYSEGRRTFYGDSVK", "CDR-H3": "GRAAGTFDN", "replicates, log10 nM": "ND / ND / ND", "mean, log10 nM": "ND", "signal with controls": "0 of 9"}
{"CDR-H1": "WFTLNSYGIS", "CDR-H2": "VIISDGRRTWYGDSVK", "CDR-H3": "GRAAGTFDS", "replicates, log10 nM": "ND / ND / ND", "mean, log10 nM": "ND", "signal with controls": "0 of 9"}
{"CDR-H1": "GFTLNSYGIS", "CDR-H2": "VIYSDGRRTMYGDSVK", "CDR-H3": "GAAAGTFAS", "replicates, log10 nM": "4.21 / 4.04 / 4.94", "mean, log10 nM": "4.39", "signal with controls": "9 of 9 (4.38)"}
{"CDR-H1": "NFTLNSYGIS", "CDR-H2": "VIYLDGRRTFYGDSVK", "CDR-H3": "GRAAITFDS", "replicates, log10 nM": "ND / ND / ND", "mean, log10 nM": "ND", "signal with controls": "0 of 9"}
{"CDR-H1": "GFTLNSYGIS", "CDR-H2": "VIYSDGRRTFYGDRVK", "CDR-H3": "GRAAITEDS", "replicates, log10 nM": "1.07 / 1.53 / 1.54", "mean, log10 nM": "1.38", "signal with controls": "1 of 9 (4.01)"}

Again, the first 3 entries without any signal:

{"CDR-H1": "RFTLNSYGIS", "CDR-H2": "VIYYDGRRTFYGDSMK", "CDR-H3": "GRAAGTFDS", "replicates, log10 nM": "ND / ND / ND", "mean, log10 nM": "ND", "signal with controls": "0 of 9"}
{"CDR-H1": "GQTLNSSGIS", "CDR-H2": "VIYSDGRRTFNGDSVK", "CDR-H3": "GRAAGTFDS", "replicates, log10 nM": "ND / ND / ND", "mean, log10 nM": "ND", "signal with controls": "0 of 9"}
{"CDR-H1": "GFWLISYGIS", "CDR-H2": "VIYSQGRRTFYGDSVK", "CDR-H3": "GRAAGTFDS", "replicates, log10 nM": "ND / ND / ND", "mean, log10 nM": "ND", "signal with controls": "0 of 9"}

From the AlphaSeq antibody data of Engelhart et al. 2022 (doi:10.1038/s41597-022-01779-4), copy in the FLAb collection.